Source: patent publication EP1332762A1, “Method of treating hyperprolactinemia and prolactinomas” (Cedars-Sinai Medical Center, priority 1997, dated 1998)

Protein sequences, listed by entry. Tags and fused reporters are not part of them. Lines headed by an entry give the natural chain unless they say otherwise; changes in a name come on top.
UniProt P32745: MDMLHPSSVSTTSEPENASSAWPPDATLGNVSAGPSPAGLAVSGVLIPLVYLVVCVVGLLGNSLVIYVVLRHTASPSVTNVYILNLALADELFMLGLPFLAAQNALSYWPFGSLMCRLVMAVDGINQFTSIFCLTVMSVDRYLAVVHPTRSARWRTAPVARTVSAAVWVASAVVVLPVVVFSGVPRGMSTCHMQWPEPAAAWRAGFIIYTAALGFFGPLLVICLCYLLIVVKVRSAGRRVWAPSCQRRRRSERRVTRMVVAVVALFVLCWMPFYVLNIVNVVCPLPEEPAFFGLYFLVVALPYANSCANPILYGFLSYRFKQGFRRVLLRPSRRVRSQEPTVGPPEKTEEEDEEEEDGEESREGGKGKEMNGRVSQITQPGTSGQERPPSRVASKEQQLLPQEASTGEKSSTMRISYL

Biological target: hSSTR-3 (Homo sapiens, UniProt P32745)
Assay: Somatostatin receptor binding assay ([125I-Tyr11]somatostatin-14, membranes of transfected CHO-K1 cells)
Conditions: radioligand 0.05 nM, 30 min at 30 °C

Work on `CC[C@@H]1NC(=O)[C@H](CCCCN)NC(=O)[C@@H](Cc2c[nH]c3ccccc23)NC(=O)[C@H](Cc2ccc(O)cc2)NC(=O)[C@@H](NC(=O)[C@@H](Cc2ccccc2)NC(=O)CN2CCN(CCO)CC2)CSSC[C@@H](C(=O)N[C@H](C(N)=O)[C@@H](C)O)NC1=O` [BIM-23190] yielded a Ki of 215 nM.
